The values that follow are results of earlier work, collected in US20230067811A1, “MODULATING LYMPHATIC VESSELS IN NEUROLOGICAL DISEASE” (University of Virginia Patent Foundation, priority 2020, published 2023).

The data set relates to AD patients. To be noted: highest dose (10 mg/kg), cited from earlier work.

Read-outs that look alike come from different tables or passages of the source.

Regarding Aducanumab: anti-Aβ monoclonal antibody, the cognitive decline entry is “significantly reduced” (EMERGE cohort) and “not in the ENGAGE cohort” (ENGAGE cohort).
